{"sequences": {"note": "The chains behind the UniProt entries cited, without tags or fusion partners.", "UniProt P31390, whole entry": "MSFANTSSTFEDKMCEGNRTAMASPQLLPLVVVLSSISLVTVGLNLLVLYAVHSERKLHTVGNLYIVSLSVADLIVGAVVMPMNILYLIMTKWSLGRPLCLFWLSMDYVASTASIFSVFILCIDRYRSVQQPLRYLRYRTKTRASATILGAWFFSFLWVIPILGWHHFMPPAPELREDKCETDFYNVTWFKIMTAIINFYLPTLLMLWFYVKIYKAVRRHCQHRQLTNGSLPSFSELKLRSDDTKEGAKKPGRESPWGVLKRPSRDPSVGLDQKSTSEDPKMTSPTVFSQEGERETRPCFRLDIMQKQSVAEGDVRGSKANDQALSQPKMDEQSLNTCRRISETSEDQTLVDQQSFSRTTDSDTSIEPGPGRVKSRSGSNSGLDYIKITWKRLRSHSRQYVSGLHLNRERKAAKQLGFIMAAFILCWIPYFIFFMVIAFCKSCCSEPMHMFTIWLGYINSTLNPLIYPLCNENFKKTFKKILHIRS"}, "source": "patent US7404945B2", "about": "“Method of evaluating pharmacological effects of medicine” (Tokyo Gas Company Limited, priority 2002, dated 2008)", "target": "H1 receptor (Rattus norvegicus, UniProt P31390)", "conditions": "rats, chlorpheniramine maleate 40 mg/kg i.p. twice; [1,2-13C]ornithine 10 mg/kg femoral vein 1 hour 30 minutes after the last administration; n=2", "note": "Counter-ions that a name gives are not always drawn."}
{"molecule": "CN(C)CCC(c1ccc(Cl)cc1)c1ccccn1", "note": "(stereo not shown) [chlorpheniramine maleate]", "values": [{"measurement": "Δ13C 10 minutes after the administration", "value": "84.7±1.9 ‰"}]}
